Measured values taken from patent publication US8927500B2, “Peptidomimetic macrocycles” (Aileron Therapeutics, Inc., priority 2012, dated 2015).

Key:
p21 = test: P21 ELISA assay in SJSA1 cells; type: cell-based, Human
RKO cells = test: Cell viability assay (MTT), RKO; settings: read-out: RKO EC50 (72 h)

| Compound | EC50 (RKO cells) | other results |
| --- | --- | --- |
| CC(=O)N[C@@H](CC(C)C)C(=O)N[C@H](C(=O)N[C@@H](Cc1ccccc1)C(=O)N[C@]1(C)CCCCCCC=CCCC[C@@](C)(C(=O)N[C@@H](C)C(=O)N[C@H](C(=O)NCC(N)=O)C(C)C)NC(=O)[C@H](CC(C)C)NC(=O)[C@H](CCC(N)=O)NC(=O)[C@H](C)NC(=O)[C@H](Cc2c[nH]c3ccccc23)NC(=O)[C@H](Cc2ccc(O)cc2)NC(=O)[C@H](C)NC1=O)[C@@H](C)O (single isomer, unassigned) [compound 109] | < 5 µM | p21 1 uM (p21; 1 uM peptide): 161; p21 3 uM (p21; 3 uM peptide): 445; p21 10 uM (p21; 10 uM peptide): 1221; p21 30 uM (p21; 30 uM peptide): 1680 |
| CC(=O)N[C@@H](CC(C)C)C(=O)N[C@H](C(=O)N[C@@H](Cc1ccccc1)C(=O)N[C@]1(C)CCCCCCC=CCCC[C@@](C)(C(=O)N[C@@H](CO)C(=O)N[C@@H](C)C(=O)N[C@@H](Cc2ccccc2)C(N)=O)NC(=O)[C@H](CC(C)C)NC(=O)[C@H](CCC(N)=O)NC(=O)[C@H](C)NC(=O)[C@H](Cc2c[nH]c3ccccc23)NC(=O)[C@H](Cc2ccc(O)cc2)NC(=O)[C@H](C)NC1=O)[C@@H](C)O [compound 7] | < 5 µM |  |
| CC(=O)N[C@@H](CC(C)C)C(=O)N[C@H](C(=O)N[C@@H](Cc1ccccc1)C(=O)N[C@]1(C)CCCCCCC=CCCC[C@@](C)(C(=O)N[C@@H](CO)C(=O)N[C@@H](C)C(=O)NC(C)(C)C(N)=O)NC(=O)[C@H](CC(C)C)NC(=O)[C@H](CCC(N)=O)NC(=O)[C@H](C)NC(=O)[C@H](Cc2c[nH]c3ccccc23)NC(=O)[C@H](Cc2ccc(O)cc2)NC(=O)[C@H](C)NC1=O)[C@@H](C)O [compound 10] | 5 to 15 µM |  |
| CC(=O)N[C@@H](CC(C)C)C(=O)N[C@H](C(=O)N[C@@H](Cc1ccccc1)C(=O)N[C@]1(C)CCCCCCC=CCCC[C@@](C)(C(=O)N[C@@H](C)C(=O)N[C@@H](Cc2c[nH]cn2)C(=O)N[C@@H](Cc2ccccc2)C(=O)N[C@@H](C)C(N)=O)NC(=O)[C@H](CC(C)C)NC(=O)[C@H](CCC(N)=O)NC(=O)[C@H](C)NC(=O)[C@H](Cc2c[nH]c3ccccc23)NC(=O)[C@H](Cc2ccc(O)cc2)NC(=O)[C@H](C)NC1=O)[C@@H](C)O [compound 50] | < 5 µM |  |
| CC(=O)N[C@@H](CC(C)C)C(=O)N[C@H](C(=O)N[C@@H](Cc1ccccc1)C(=O)N[C@]1(C)CCCCCC/C=C/CCC[C@@](C)(C(=O)N[C@@H](CO)C(=O)N[C@@H](C)C(=O)N[C@@H](C)C(N)=O)NC(=O)[C@H](CC(C)C)NC(=O)[C@H](CCC(N)=O)NC(=O)[C@H](C)NC(=O)[C@H](Cc2c[nH]c3cc(Cl)ccc23)NC(=O)[C@H](Cc2ccc(O)cc2)NC(=O)[C@H](C)NC1=O)[C@@H](C)O [compound 99] | < 5 µM |  |
| CC(=O)N[C@@H](CC(C)C)C(=O)N[C@H](C(=O)N[C@@H](Cc1ccccc1)C(=O)N[C@]1(C)CCCCCC/C=C\CCC[C@@](C)(C(=O)N[C@@H](CO)C(=O)N[C@@H](C)C(=O)N[C@@H](C)C(N)=O)NC(=O)[C@H](CCC(C)C)NC(=O)[C@H](CCC(N)=O)NC(=O)[C@H](C)NC(=O)[C@H](Cc2c[nH]c3ccccc23)NC(=O)[C@H](Cc2ccc(O)cc2)NC(=O)[C@H](C)NC1=O)[C@@H](C)O [compound 114] | 5 to 15 µM |  |
| CC(=O)N[C@@H](CC(C)C)C(=O)N[C@H](C(=O)N[C@@H](Cc1ccccc1)C(=O)N[C@]1(C)CCCCCC/C=C/CCC[C@@](C)(C(=O)N[C@@H](CO)C(=O)N[C@@H](C)C(=O)N[C@@H](C)C(N)=O)NC(=O)[C@H](CCC(C)C)NC(=O)[C@H](CCC(N)=O)NC(=O)[C@H](C)NC(=O)[C@H](Cc2c[nH]c3ccccc23)NC(=O)[C@H](Cc2ccc(O)cc2)NC(=O)[C@H](C)NC1=O)[C@@H](C)O [compound 115] | 5 to 15 µM |  |
| CC(=O)N[C@@H](CC(C)C)C(=O)N[C@H](C(=O)N[C@@H](Cc1ccccc1)C(=O)N[C@]1(C)CCCCCCC=CCCC[C@@](C)(C(=O)N[C@@H](CO)C(=O)N[C@@H](C)C(=O)N[C@@H](CO)C(N)=O)NC(=O)[C@H](CC(C)C)NC(=O)[C@H](CCC(N)=O)NC(=O)[C@H](C)NC(=O)[C@H](Cc2c[nH]c3ccccc23)NC(=O)[C@H](Cc2ccc(O)cc2)NC(=O)[C@H](C)NC1=O)[C@@H](C)O [compound 122] | 5 to 15 µM |  |
| CC(=O)N[C@@H](CCC(=O)O)C(=O)N[C@H](C(=O)N[C@@H](Cc1ccccc1)C(=O)N[C@]1(C)CCCCCCC=CCCC[C@@](C)(C(=O)N[C@@H](CO)C(=O)N[C@@H](C)C(=O)N[C@@H](C)C(N)=O)NC(=O)[C@H](CC(C)C)NC(=O)[C@H](CCC(N)=O)NC(=O)[C@H](C)NC(=O)[C@H](Cc2c[nH]c3ccccc23)NC(=O)[C@H](Cc2ccc(O)cc2)NC(=O)[C@H](C(C)C)NC1=O)[C@@H](C)O [compound 125] | 5 to 15 µM |  |
| CC(=O)N[C@@H](CCC(=O)O)C(=O)N[C@H](C(=O)N[C@@H](Cc1ccccc1)C(=O)N[C@]1(C)CCCCCCC=CCCC[C@@](C)(C(=O)N[C@@H](CO)C(=O)N[C@H](C(=O)N[C@@H](C)C(N)=O)C(C)C)NC(=O)[C@H](CC(C)C)NC(=O)[C@H](CCC(N)=O)NC(=O)[C@H](C)NC(=O)[C@H](Cc2c[nH]c3ccccc23)NC(=O)[C@H](Cc2ccc(O)cc2)NC(=O)[C@H](C(C)C)NC1=O)[C@@H](C)O [compound 126] | > 30 µM |  |
| CC(=O)N[C@@H](CC(C)C)C(=O)N[C@H](C(=O)N[C@@H](Cc1ccc(F)c(F)c1)C(=O)N[C@]1(C)CCCCCC/C=C/CCC[C@@](C)(C(=O)N[C@@H](CO)C(=O)N[C@@H](C)C(=O)N[C@@H](C)C(N)=O)NC(=O)[C@H](CCC(C)C)NC(=O)[C@H](CCC(N)=O)NC(=O)[C@H](C)NC(=O)[C@H](Cc2c[nH]c3ccccc23)NC(=O)[C@H](Cc2ccc(O)cc2)NC(=O)[C@H](CCC(=O)O)NC1=O)[C@@H](C)O [compound 160] | > 30 µM |  |
| CC(=O)N[C@@H](CCC(=O)O)C(=O)N[C@H](C(=O)N[C@@H](Cc1ccccc1)C(=O)N[C@]1(C)CCCCCCC=CCCC[C@@](C)(C(=O)N[C@@H](CO)C(=O)N[C@@H](C)C(=O)N[C@@H](C)C(N)=O)NC(=O)[C@H](CC(C)C)NC(=O)[C@H](CCC(N)=O)NC(=O)[C@H](C)NC(=O)[C@H](Cc2c[nH]c3ccccc23)NC(=O)[C@H](Cc2ccc(O)cc2)NC(=O)[C@H](CCC(=O)O)NC1=O)[C@@H](C)O [compound 161] | > 30 µM |  |
| CC(=O)N[C@@H](CC(C)C)C(=O)N[C@H](C(=O)N[C@@H](Cc1ccccc1)C(=O)N[C@]1(C)CCCCCCC=CCCC[C@@](C)(C(=O)N[C@@H](CO)C(=O)N[C@@H](C)C(=O)N[C@@H](C)C(N)=O)NC(=O)[C@H](CC(C)C)NC(=O)[C@H](C)NC(=O)[C@H](C(C)C)NC(=O)[C@H](Cc2c[nH]c3ccccc23)NC(=O)[C@H](Cc2ccc(O)cc2)NC(=O)[C@H](C)NC1=O)[C@@H](C)O [compound 196] | < 5 µM |  |
| CC[C@H](C)[C@H](NC(=O)[C@H](C)NC(=O)[C@H](C)NC(=O)[C@]1(C)CCC/C=C/CCCCCC[C@@](C)(NC(=O)[C@H](Cc2ccccc2)NC(=O)[C@@H](NC(=O)[C@H](CC(C)C)NC(C)=O)[C@@H](C)O)C(=O)N[C@@H](CCC(=O)O)C(=O)N[C@@H](Cc2ccc(C(=O)O)cc2)C(=O)N[C@@H](Cc2c[nH]c3ccccc23)C(=O)N[C@@H](C)C(=O)N[C@@H](CCC(N)=O)C(=O)N[C@@H](CC2CCC2)C(=O)N1)C(=O)N[C@H](C)C(N)=O [compound 249] | < 5 µM |  |
| CC(=O)N[C@@H](CC(C)C)C(=O)N[C@H](C(=O)N[C@@H](Cc1ccccc1)C(=O)N[C@]1(C)CCCCCC/C=C/CCC[C@@](C)(C(=O)N[C@@H](C)C(=O)N[C@@H](C)C(=O)N[C@@H](C)C(=O)N[C@@H](C)C(=O)N[C@@H](C)C(=O)N[C@H](C)C(N)=O)NC(=O)[C@H](CC2CCC2)NC(=O)[C@H](CCC(N)=O)NC(=O)[C@H](C)NC(=O)[C@H](Cc2c[nH]c3ccccc23)NC(=O)[C@H](Cc2ccc(C(=O)O)cc2)NC(=O)[C@H](CCC(=O)O)NC1=O)[C@@H](C)O [compound 349] | 5 to 15 µM |  |
| CCCC[C@H](NC(=O)[C@H](C)NC(=O)[C@H](C)NC(=O)[C@]1(C)CCC/C=C/CCCCCC[C@@](C)(NC(=O)[C@H](Cc2ccccc2)NC(=O)[C@@H](NC(=O)[C@H](CC(C)C)NC(C)=O)[C@@H](C)O)C(=O)N[C@@H](C)C(=O)N[C@@H](Cc2ccc(O)cc2)C(=O)N[C@@](C)(Cc2c[nH]c3ccccc23)C(=O)N[C@@H](C)C(=O)N[C@@H](CCC(N)=O)C(=O)N[C@@H](CC(C)C)C(=O)N1)C(=O)N[C@@H](C)C(N)=O [compound 388] | 15 to 30 µM |  |
| CC(C)C[C@H](NC(=O)CN(C)C)C(=O)N[C@H](C(=O)N[C@@H](Cc1ccccc1)C(=O)N[C@]1(C)CCCCCCC=CCCC[C@@](C)(C(=O)N[C@@H](CO)C(=O)N[C@@H](C)C(=O)N[C@@H](C)C(N)=O)NC(=O)[C@H](CC2CCC2)NC(=O)[C@H](CCC(N)=O)NC(=O)[C@H](C)NC(=O)[C@H](Cc2c[nH]c3ccccc23)NC(=O)[C@H](Cc2ccc(O)cc2)NC(=O)[C@H](CCC(=O)O)NC1=O)[C@@H](C)O [compound 435] | 15 to 30 µM |  |
| CCCC[C@H](NC(=O)[C@H](C)NC(=O)[C@H](C)NC(=O)[C@]1(C)CCCCCCCCCCC[C@@](C)(NC(=O)[C@H](Cc2ccccc2)NC(=O)[C@@H](NC(=O)[C@H](CC(C)C)NC(C)=O)[C@@H](C)O)C(=O)N[C@@H](C)C(=O)N[C@@H](Cc2ccc(O)cc2)C(=O)N[C@@H](Cc2c[nH]c3ccccc23)C(=O)N[C@@H](C)C(=O)N[C@@H](CCC(N)=O)C(=O)N[C@@H](CC(C)C)C(=O)N1)C(=O)N[C@@H](C)C(N)=O [compound 444] | < 5 µM |  |
| CC(=O)N[C@@H](CC(C)C)C(=O)N[C@H](C(=O)N[C@@H](Cc1ccccc1)C(=O)N[C@]1(C)CCCCCCCCCCC[C@@](C)(C(=O)N[C@@H](C)C(=O)N[C@@H](C)C(=O)N[C@@H](C)C(=O)N[C@@H](C)C(=O)N[C@@H](C)C(=O)N[C@H](C)C(N)=O)NC(=O)[C@H](CC(C)C)NC(=O)[C@H](CCC(N)=O)NC(=O)[C@H](C)NC(=O)[C@H](Cc2c[nH]c3ccccc23)NC(=O)[C@H](Cc2ccc(O)cc2)NC(=O)[C@H](CCC(=O)O)NC1=O)[C@@H](C)O [compound 445] | 5 to 15 µM |  |
